Tests used:
[1] = Acute toxicity in ICR mouse assessed as change in kidney at 100 mg/kg, ip measured after 14 days; assay type: organism-based; settings: in vivo, 336 h, time 14 day
[2] = Toxicity in BALB/c nude mouse xenografted with human KLE cells assessed as change in AST level at 1 to 2 mg/kg, po administered every other day for 21 days; assay type: organism-based; settings: in vivo, 504 h, dose 1-2 mg/kg, time 21 day
[3] = Extrapyramidal side effect in mouse assessed as average fall off latency time at 100 mg/kg, ip by rotarod test; assay type: toxicity, organism-based; settings: in vivo
[4] = Toxicity in BALB/c nude mouse xenografted with human KLE cells assessed as reduction in body weight at 1 to 2 mg/kg, po administered every other day for 21 days; assay type: organism-based; settings: in vivo, 504 h, dose 1-2 mg/kg, time 21 day
[5] = Acute toxicity in ICR mouse assessed as change in spleen at 100 mg/kg, ip measured after 14 days; assay type: organism-based; settings: in vivo, 336 h, time 14 day
[6] = Extrapyramidal side effect in mouse assessed as average fall off latency time at 50 mg/kg, ip by rotarod test; assay type: toxicity, organism-based; settings: in vivo
[7] = Acute toxicity in ICR mouse assessed as change in liver at 100 mg/kg, ip measured after 14 days; assay type: organism-based; settings: in vivo, 336 h, time 14 day
[8] = Toxicity in BALB/c nude mouse xenografted with human KLE cells assessed as change in urea level at 1 to 2 mg/kg, po administered every other day for 21 days; assay type: organism-based; settings: in vivo, 504 h, dose 1-2 mg/kg, time 21 day
[9] = Acute toxicity in ICR mouse assessed as change in lungs at 100 mg/kg, ip measured after 14 days; assay type: organism-based; settings: in vivo, 336 h, time 14 day
[10] = Acute toxicity in ICR mouse assessed as change in body weight at 100 mg/kg, ip measured daily for 14 days; assay type: organism-based; settings: in vivo, 336 h, time 14 day
[11] = Toxicity in BALB/c nude mouse xenografted with human KLE cells assessed as kidney damage at 1 to 2 mg/kg, po administered every other day for 21 days bty H and E staining based assay; assay type: organism-based; settings: in vivo, 504 h, dose 1-2 mg/kg, time 21 day
[12] = Toxicity in BALB/c nude mouse xenografted with human KLE cells assessed as heart damage at 1 to 2 mg/kg, po administered every other day for 21 days bty H and E staining based assay; assay type: organism-based; settings: in vivo, 504 h, dose 1-2 mg/kg, time 21 day
[13] = Extrapyramidal side effect in mouse assessed as effect on motor ability at 50 to 100 mg/kg, ip by rotarod test; assay type: toxicity, organism-based; settings: in vivo, dose 50-100 mg/kg
[14] = Toxicity in BALB/c nude mouse xenografted with human KLE cells assessed as liver damage at 1 to 2 mg/kg, po administered every other day for 21 days bty H and E staining based assay; assay type: organism-based; settings: in vivo, 504 h, dose 1-2 mg/kg, time 21 day
[15] = Toxicity in BALB/c nude mouse xenografted with human KLE cells assessed as change in ALT level at 1 to 2 mg/kg, po administered every other day for 21 days; assay type: organism-based; settings: in vivo, 504 h, dose 1-2 mg/kg, time 21 day
[16] = Acute toxicity in ICR mouse assessed as change in heart at 100 mg/kg, ip measured after 14 days; assay type: organism-based; settings: in vivo, 336 h, time 14 day
[17] = Toxicity in BALB/c nude mouse xenografted with human KLE cells assessed as change in creatinine kinase level at 1 to 2 mg/kg, po administered every other day for 21 days; assay type: organism-based; settings: in vivo, 504 h, dose 1-2 mg/kg, time 21 day
[18] = Toxicity in BALB/c nude mouse xenografted with human KLE cells assessed as spleen damage at 1 to 2 mg/kg, po administered every other day for 21 days bty H and E staining based assay; assay type: organism-based; settings: in vivo, 504 h, dose 1-2 mg/kg, time 21 day
[19] = Toxicity in BALB/c nude mouse xenografted with human KLE cells assessed as change in creatinine level at 1 to 2 mg/kg, po administered every other day for 21 days; assay type: organism-based; settings: in vivo, 504 h, dose 1-2 mg/kg, time 21 day

## COc1ccc2c(c1)N(CCCCCN1CCC3(CCN(C)CC3)CC1)c1ncccc1S2
[1]
  Activity: Non-Toxic
[2]
  Activity: Non-Toxic
[3]
  Time: 243 s
[4]
  Activity: Non-Toxic
[5]
  Activity: Non-Toxic
[6]
  Time: 255 s
[7]
  Activity: Non-Toxic
[8]
  Activity: Non-Toxic
[9]
  Activity: Non-Toxic
[10]
  Activity: Non-Toxic
[11]
  Activity: Non-Toxic
[12]
  Activity: Non-Toxic
[13]
  Activity: Non-Toxic
[14]
  Activity: Non-Toxic
[15]
  Activity: Non-Toxic
[16]
  Activity: Non-Toxic
[17]
  Activity: Non-Toxic
[18]
  Activity: Non-Toxic
[19]
  Activity: Non-Toxic
